EP4837908A1, “NOVEL SODIUM CHANNEL MODULATOR COMPOUND AND USE THEREOF” (dated 2026)

By UniProt entry, the sequences of proteins in these tests, tags left out.
UniProt Q9Y5Y9, whole entry: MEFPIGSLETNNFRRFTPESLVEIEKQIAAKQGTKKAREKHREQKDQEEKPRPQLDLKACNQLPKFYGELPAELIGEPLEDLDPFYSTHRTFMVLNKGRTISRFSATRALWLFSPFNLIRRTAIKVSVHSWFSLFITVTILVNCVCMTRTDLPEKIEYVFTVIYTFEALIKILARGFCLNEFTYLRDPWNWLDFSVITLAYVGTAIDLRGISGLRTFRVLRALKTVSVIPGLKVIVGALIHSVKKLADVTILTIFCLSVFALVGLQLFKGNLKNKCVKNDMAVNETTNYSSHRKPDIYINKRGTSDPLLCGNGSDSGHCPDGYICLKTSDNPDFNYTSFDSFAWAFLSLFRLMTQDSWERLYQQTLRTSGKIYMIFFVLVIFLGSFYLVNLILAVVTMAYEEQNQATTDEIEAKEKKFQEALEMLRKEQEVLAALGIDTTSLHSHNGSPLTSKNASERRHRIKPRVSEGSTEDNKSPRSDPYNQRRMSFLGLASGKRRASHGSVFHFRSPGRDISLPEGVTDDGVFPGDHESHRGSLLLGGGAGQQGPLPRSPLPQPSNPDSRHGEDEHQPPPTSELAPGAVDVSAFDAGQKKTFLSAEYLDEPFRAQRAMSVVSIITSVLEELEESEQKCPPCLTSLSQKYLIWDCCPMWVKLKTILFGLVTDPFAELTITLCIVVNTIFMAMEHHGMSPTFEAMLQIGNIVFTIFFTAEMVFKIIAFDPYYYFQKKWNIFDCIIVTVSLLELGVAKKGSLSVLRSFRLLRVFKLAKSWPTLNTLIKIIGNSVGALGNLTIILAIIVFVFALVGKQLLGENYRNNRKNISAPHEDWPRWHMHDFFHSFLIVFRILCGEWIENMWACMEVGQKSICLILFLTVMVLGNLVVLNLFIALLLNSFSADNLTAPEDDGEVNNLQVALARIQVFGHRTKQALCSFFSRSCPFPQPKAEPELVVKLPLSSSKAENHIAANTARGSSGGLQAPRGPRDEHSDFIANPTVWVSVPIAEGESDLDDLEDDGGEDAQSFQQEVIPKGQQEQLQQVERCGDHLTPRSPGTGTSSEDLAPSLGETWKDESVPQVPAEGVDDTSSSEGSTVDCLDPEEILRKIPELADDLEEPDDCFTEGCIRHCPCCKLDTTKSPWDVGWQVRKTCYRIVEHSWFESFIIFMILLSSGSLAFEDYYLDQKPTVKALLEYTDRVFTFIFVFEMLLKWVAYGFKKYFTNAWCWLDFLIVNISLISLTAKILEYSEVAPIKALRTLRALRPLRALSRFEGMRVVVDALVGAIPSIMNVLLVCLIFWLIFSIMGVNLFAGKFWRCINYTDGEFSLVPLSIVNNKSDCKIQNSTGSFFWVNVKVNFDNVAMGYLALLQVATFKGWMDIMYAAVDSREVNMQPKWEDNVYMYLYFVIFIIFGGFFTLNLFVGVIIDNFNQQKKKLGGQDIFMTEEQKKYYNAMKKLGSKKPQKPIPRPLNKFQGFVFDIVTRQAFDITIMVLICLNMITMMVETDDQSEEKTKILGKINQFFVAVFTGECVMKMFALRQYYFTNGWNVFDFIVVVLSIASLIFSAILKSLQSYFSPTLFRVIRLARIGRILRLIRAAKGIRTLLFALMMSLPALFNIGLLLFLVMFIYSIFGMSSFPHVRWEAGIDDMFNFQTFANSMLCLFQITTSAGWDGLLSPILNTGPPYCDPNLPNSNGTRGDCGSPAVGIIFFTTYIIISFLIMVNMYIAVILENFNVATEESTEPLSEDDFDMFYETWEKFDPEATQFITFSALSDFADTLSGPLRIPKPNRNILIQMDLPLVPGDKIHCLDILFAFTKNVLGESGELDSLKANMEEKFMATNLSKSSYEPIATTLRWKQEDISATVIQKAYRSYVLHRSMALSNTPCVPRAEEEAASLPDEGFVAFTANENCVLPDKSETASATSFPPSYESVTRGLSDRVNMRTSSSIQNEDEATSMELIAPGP

How the values were obtained:
[1] = Liver microsome metabolic stability (human); conditions: Human liver microsome 0.5 mg/mL, test compound 1 µM, NADPH 1 mM
[2] = Pharmacokinetics in rats after administration via gavage; conditions: male SD rats, 0.5 mg/mL at 10 mL/kg; for Half-life t1/2 / Peak time tmax / Residence time MRTinf: plasma
[3] = biological target: Nav1.8 (Homo sapiens, UniProt Q9Y5Y9)
[4] = Liver microsome metabolic stability (rat); conditions: Rat liver microsome 0.5 mg/mL, test compound 1 µM, NADPH 1 mM
[5] = Liver microsome metabolic stability (monkey); conditions: Monkey liver microsome 0.5 mg/mL, test compound 1 µM, NADPH 1 mM

[2H]C([2H])([2H])Oc1c([C@H]2[C@H](C(=O)Nc3ccc(C(N)=O)c(C(N)=O)c3)O[C@@](C)(C(F)(F)F)[C@H]2C)ccc(F)c1F
Half-life t1/2 [1]: > 2.42 h
Peak plasma concentration Cmax [2]: 136 ng/mL
Plasma exposure amount AUC [2]: 1080 ng·h/mL
Half-life t1/2 [2]: 3.37 h
Peak time tmax [2]: 1.0 h
Residence time MRTinf [2]: 5.78 h
IC50 [3]: < 0.5 nM
Half-life t1/2 [4]: > 2.42 h
Half-life t1/2 [5]: > 2.42 h

COc1c([C@H]2[C@H](C(=O)Nc3ccc(C(N)=O)c(C(N)=O)c3)O[C@@](C)(C(F)(F)F)[C@H]2C)ccc(F)c1F
Half-life t1/2 [1]: 1.02 h
Peak plasma concentration Cmax [2]: 111 ng/mL
Plasma exposure amount AUC [2]: 431 ng·h/mL
Half-life t1/2 [2]: 3.4 h
Peak time tmax [2]: 0.5 h
Residence time MRTinf [2]: 4.82 h
Half-life t1/2 [4]: 2.03 h
Half-life t1/2 [5]: 0.76 h

C[C@H]1[C@@H](c2ccc(F)c(F)c2OC(F)F)[C@H](C(=O)Nc2ccc(C(N)=O)c(C(N)=O)c2)O[C@@]1(C)C(F)(F)F
Half-life t1/2 [1]: > 2.42 h
Peak plasma concentration Cmax [2]: 114 ng/mL
Plasma exposure amount AUC [2]: 1017 ng·h/mL
Half-life t1/2 [2]: 4.91 h
Peak time tmax [2]: 4.00 h
Residence time MRTinf [2]: 7.37 h
IC50 [3]: < 0.5 nM
Half-life t1/2 [4]: > 2.42 h
Half-life t1/2 [5]: > 2.42 h

C[C@H]1[C@@H](c2ccc(F)c(F)c2OCF)[C@H](C(=O)Nc2ccc(C(N)=O)c(C(N)=O)c2)O[C@@]1(C)C(F)(F)F
Half-life t1/2 [1]: > 2.42 h
Peak plasma concentration Cmax [2]: 213 ng/mL
Plasma exposure amount AUC [2]: 1986 ng·h/mL
Half-life t1/2 [2]: 5.16 h
Peak time tmax [2]: 3.33 h
Residence time MRTinf [2]: 7.66 h
IC50 [3]: < 0.5 nM
Half-life t1/2 [4]: > 2.42 h
Half-life t1/2 [5]: > 2.42 h
